This note sets out measurements from ChEMBL document CHEMBL1121722, “Nonquaternary cholinesterase reactivators. Dialkylaminoalkyl thioesters of alpha-ketothiohydroximic acids as reactivators of diisopropyl phosphorofluoridate inhibited acetylcholinesterase” (1981).

This data set can be described thus: Dissociation constant of the compound.
For orientation: pKa means the pH at which an ionisable group is half protonated. Low readings indicate a group that gives up its proton readily, high ones a group that holds its proton tightly. As for `CCN(CC)CCS/C(=N\O)C(=O)c1ccc([N+](=O)[O-])cc1.Cl`, the pKa turned out to be 7.14.
In turn, `CC[N+](C)(CC)CCS/C(=N\O)C(=O)c1ccc(OC)cc1.[I-]` returned a pKa of 7.82.
Under `COc1ccc(C(=O)/C(=N/O)SCCN(C(C)C)C(C)C)cc1.Cl` stands 8.01; under `COc1ccc(C(=O)/C(=N/O)SCCCN(C)C)cc1.O=C(O)C(=O)O`, 8.42.
Under `CCN(CC)CCS/C(=N\O)C(=O)c1ccc(OC)cc1.Cl` stands 7.82; under `COc1ccc(C(=O)/C(=N/O)SCCN(C)C)cc1.Cl`, 8; under `CCN(CC)CCS/C(=N\O)C(=O)c1ccc(Br)cc1.Cl`, 9.28.
As for `CCN(CC)CCS/C(=N\O)C(C)=O.Cl`, the figure is 7.4.
In the case of `CCN(CC)CCS/C(=N\O)C(=O)c1ccccc1.Cl`, the pKa was 7.6.
